{
  "sequences": {"note": "Chains of the proteins cited; added tags and fusions are not shown.", "UniProt P30550, whole entry, stated change not applied": "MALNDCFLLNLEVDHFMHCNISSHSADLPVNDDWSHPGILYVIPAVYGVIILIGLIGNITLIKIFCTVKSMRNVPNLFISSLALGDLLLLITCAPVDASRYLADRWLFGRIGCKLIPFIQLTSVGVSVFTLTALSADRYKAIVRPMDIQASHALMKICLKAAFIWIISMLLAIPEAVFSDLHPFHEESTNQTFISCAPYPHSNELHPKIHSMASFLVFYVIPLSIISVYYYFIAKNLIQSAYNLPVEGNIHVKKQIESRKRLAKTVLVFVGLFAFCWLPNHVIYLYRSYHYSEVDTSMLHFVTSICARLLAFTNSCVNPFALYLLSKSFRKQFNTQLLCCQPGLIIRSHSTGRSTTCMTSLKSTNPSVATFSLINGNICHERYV"},
  "source": "paper PMC12920379",
  "about": "(2025)",
  "target": "GRPR (T47D cells) (Homo sapiens, UniProt P30550)",
  "assay": "saturation binding on T47D cells at 4 °C",
  "data": [
    {"binder": "FQWAVGHL (AAZTA5-Pip N-terminal chelator with nat/47Sc, D-Phe1, Sta between His and Leu, C-terminal NH2)", "note": "[LF1 (nat/47Sc-LF1, statine-based GRPR antagonist)]", "values": [
      {"measurement": "Kd", "value": 10.6, "unit": "nM"}
    ]}
  ]
}
